{
  "source": "patent US8552068B2",
  "about": "“Compositions and methods” (priority 2004, dated 2013)",
  "tested_on": "Artificially-ventilated pentobarbital anesthetised rabbits",
  "test": "Intravenous infusion of carrier solutions saturated with pure nitric oxide gas; exhaled NO and MAP",
  "conditions": "for effect as NO carrier / NO delivering capacity (words): compared to the saline control",
  "note": "“Also recorded” adds a separate entry of the source.",
  "data": [
    {"molecule": "CCCO", "note": "[Carrier 1-Propanol, 1-Propanol]", "values": [
      {"measurement": "effect as NO carrier / NO delivering capacity (words)", "result": "noticeable effect; also recorded: marked effect"},
      {"measurement": "MAP, Change (absolute value)", "setting": "infusion versus pre-infusion", "result": "−10.3", "unit": "cmH2O"}
    ]},
    {"molecule": "Albumin [Albumin (20%)]", "values": [
      {"measurement": "effect as NO carrier / NO delivering capacity (words)", "result": "noticeable effect"},
      {"measurement": "Exhaled NO, Change (%)", "setting": "infusion versus pre-infusion", "result": 4, "unit": "%"},
      {"measurement": "Exhaled NO, Change (absolute value)", "setting": "infusion versus pre-infusion", "result": 0.6, "unit": "ppb"},
      {"measurement": "MAP, Change (%)", "setting": "infusion versus pre-infusion", "result": "−31", "unit": "%"},
      {"measurement": "MAP, Change (absolute value)", "setting": "infusion versus pre-infusion", "result": "−32.4", "unit": "cmH2O"}
    ]}
  ]
}
